Common to all, as to assay type: physicochemical
Data set [1] can be described thus: Solubility of in situ salts versus free acid. To be noted: buffer pH 8, pH 8.06, aqueous buffer.
A short description of a further data set: pH solubility profile. To be noted: 0.1 M phosphate buffer, thermodynamic from solid.
A short description of data set [2]: Solubility profile at room temperature, HPLC. Conditions: thermodynamic from solid.

Usually solubility stands for the concentration that dissolves in the medium under given conditions.

≈ marks a conversion by molar mass, not a printed value.

For the compound `Cc1[nH]c(C=C2C(=O)Nc3ccccc32)c(C)c1CCC(=O)O` [free acid, 3-[2,4-dimethyl-5-(2-oxo-1,2-dihydro-indol-3-ylidenemethyl)-1H-pyrrol-3-yl]-propionic acid], the solubility in data set [1] turned out to be 0.085 mg/mL.

As to `Cc1[nH]c(C=C2C(=O)Nc3ccccc32)c(C)c1CCC(=O)O` [3-[2,4-Dimethyl-5-(2-oxo-1,2-dihydro-indol-3-ylidenemethyl)-1H-pyrrol-3-yl]-propionic acid], the solubility in “pH solubility profile” (pH 8, aqueous buffer, pH of buffer 8.0 (0.1 M phosphate), average pH at equilibrium 8.06) is 0.085 mg/mL (≈ 274 µM); in “pH solubility profile” (pH 8.2, aqueous buffer, pH of buffer 8.2 (0.1 M phosphate), pH at equilibrium not tested) it was 0.13 mg/mL (≈ 419 µM); in data set [2] (0.1 M phosphate buffer, aqueous buffer, pH 7 buffer (0.1 M phosphate), average of 2 lots), 0.009 mg/mL (≈ 29 µM); in data set [2] (0.1 M phosphate buffer, aqueous buffer, pH 8 buffer (0.1 M phosphate), average of 2 lots) it was 0.085 mg/mL (≈ 274 µM); in data set [2] (0.1 N HCl, simulated gastric fluid), under 0.0001 mg/mL; in data set [2] (aqueous with cosolvent or surfactant or cyclodextrin, 2% Polysorbate - 80), 0.13 mg/mL (≈ 419 µM). The solubility in data set [2] (aqueous with cosolvent or surfactant or cyclodextrin, 2% aqueous Polysorbate - 80) is 0.13 mg/mL (≈ 419 µM); in data set [2] (aqueous with cosolvent or surfactant or cyclodextrin, 10% Propylene glycol in pH 8.2 buffer, average of 2 lots), 0.4 mg/mL (≈ 1290 µM); in data set [2] (aqueous with cosolvent or surfactant or cyclodextrin, 15% PEG 300, 1% Benzyl alcohol in pH 8.2 buffer, average of 2 lots), 1.8 mg/mL (≈ 5800 µM); in data set [2] (aqueous with cosolvent or surfactant or cyclodextrin, 15% PEG 300 in pH 8.2 buffer, average of 2 lots) it was 1.4 mg/mL (≈ 4510 µM); in data set [2] (aqueous with cosolvent or surfactant or cyclodextrin, 30% PEG 300, 1% Benzyl alcohol in pH 8.2 buffer, average of 2 lots), 3.7 mg/mL (≈ 11900 µM); in data set [2] (aqueous with cosolvent or surfactant or cyclodextrin, 30% PEG 300 in pH 8.2 buffer, average of 2 lots) it was 3.2 mg/mL (≈ 10300 µM). In addition, the solubility in data set [2] (ethanol, organic solvent or mixture) is 1.2 mg/mL (≈ 3870 µM); in data set [2] (methanol, organic solvent or mixture), 0.6 mg/mL (≈ 1930 µM); in data set [2] (organic solvent or mixture, PEG-300, average of 3 lots), 6.8 mg/mL (≈ 21900 µM); in data set [2] (Water, average of 3 lots, room temperature), 0.03 mg/mL (≈ 96.7 µM).

The values are drawn from US6878733B1, “Formulations for pharmaceutical agents ionizable as free acids or free bases” (Sugen, Inc., priority 1999, dated 2005).
